Only a part is listed here, and it is no random draw. Some of these compounds have results that are not shown, active ones among them. The source made the active and inactive calls.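 How the source made its calls: active means inhibition of the luminescence signal of 40% or more relative to plate controls, in a single-dose primary screen at 18.75 µM; inactive means the rest.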
Test: blockers of HIF-2a driven luciferase – luminescence, 786-0 RCC cells, primary screen (AID 624352)
Settings: 786-0 RCC cells HIF-2a reporter, overnight, at 18.8 µM, stronger effect = higher value

| Compound | inhibition |
| --- | --- |
| COc1ccc(C(=O)NCC2(N(C)C)CCCCC2)cc1 | inactive: 13.6% |
| Cc1cc(C(=O)NCC2(N3CCCCC3)CCCCC2)ccc1[N+](=O)[O-] | inactive: 3.38% |
| CCN1CCCC(OC(=O)C2(O)c3ccccc3C=Cc3ccccc32)C1 (stereo unspecified) | inactive: 13.7% |
| O=C(NCC1(N2CCCCC2)CCCCC1)c1cccc(Br)c1 | inactive: 18.5% |
| C=CCN1CCN(CCOC(=O)C(O)(c2ccccc2)c2ccccc2)CC1 | inactive: 5.12% |
| O=C(NCC1(N2CCCCC2)CCCCC1)c1cc(F)c(F)cc1Cl | inactive: 12.1% |
| Cc1ccccc1C(=O)NCC1(N2CCCCC2)CCCCC1 | inactive: 14.2% |
| CN(C)C1CCCC1OC(=O)C(O)(c1ccccc1)c1ccccc1 (stereo unspecified) | inactive: 9.31% |
| CN(C)c1ccc(C(=O)NCC2(N(C)C)CCCCC2)cc1 | inactive: -2.74% |
| Cc1ccc(C(=O)NCC2(N3CCCCC3)CCCCC2)cc1 | inactive: 4.76% |
| CCN(CC)CC(C)C(C)OC(=O)C(O)(c1ccccc1)c1ccccc1 (stereo unspecified) | inactive: 11.8% |
| COc1cc(SC)ccc1C(=O)NCC1(N(C)C)CCCCC1 | inactive: 8.59% |
| CC(C)N1C(=O)CC2(CCN(CCOC(=O)C(O)(c3ccccc3)c3ccccc3)CC2)C1=O | inactive: 11% |
| CN1[C@@H]2CC[C@H]1CC(OC(=O)C(O)(c1ccccc1)c1ccccc1)C2 (stereo partly specified) | inactive: 12.8% |
| O=C(NCC1(N2CCCCC2)CCCCC1)c1cc([N+](=O)[O-])ccc1Cl | inactive: 8.89% |
| CC(C)Oc1ccc(C(=O)NCC2(N(C)C)CCCCC2)cc1 | inactive: -4.27% |
| O=C(OCCN1CCCC1)C(O)(c1ccccc1)c1ccccc1 | inactive: 4.53% |
| CN(C)c1cccc(C(=O)NCC2(N(C)C)CCCCC2)c1 | inactive: -2.71% |
| C=C(C)C#CC(O)(C(=O)OC1CCN(C)CC1)c1ccccc1 (stereo unspecified) | inactive: 4.79% |
| COc1ccc(Br)c(C(=O)NCC2(N3CCCCC3)CCCCC2)c1 | inactive: -5.04% |
| O=C(OC1CN2CCC1CC2)C(CO)(c1ccccc1)c1ccccc1 (stereo unspecified) | inactive: 4.67% |
| O=C(NCC1(N2CCCCC2)CCCCC1)c1cccc(Cl)c1 | inactive: 8.61% |
| COc1cccc(C(=O)NCC2(N3CCCCC3)CCCCC2)c1 | inactive: 10.5% |
| COc1ccc(Cl)cc1C(=O)NCC1(N(C)C)CCCCC1 | inactive: 7.52% |
| COc1cc(C(=O)NCC2(N(C)C)CCCCC2)c([N+](=O)[O-])cc1OC | inactive: 14.7% |
| CN(C)C1(CNC(=O)c2ccc(Br)cc2)CCCCC1 | inactive: 10.5% |

Reference: PubChem BioAssay AID624352 (Sanford-Burnham Center for Chemical Genomics, 2012)
